Values of other authors, collected in patent US9307763B2, “Ligands for odor receptors and olfactory neurons” (The Regents of the University of California, priority 2010, dated 2016).

Test system: CO2 responsive neurons
Details: activities normalized from 100 (strongest observed activator) to −100 (most inhibitory); averaged across the top 2 responders of the 4 species; cited from earlier work

Structure (SMILES): CCC(=O)Br
- Final Activity: −88
